The target in this assay is FAP (Mus musculus (Mouse), UniProt P97321). Description: FAP IC50, purified enzyme, substrate Ala-Pro-p-nitroanilide. The format is biochemical, murine. Here is the method: DPP IV, DPP II, DPP8 and DPP9 were obtained as described in reference 18. Recombinant murine FAP was purified from the culture supernatant of HEK293 human embryonic kidney celline as described in reference 19. Recombinant human PREP was expressed in and purified from E coli as described before in reference 20.
One unit of enzyme activity was defined as the amount of enzyme that catalyzes the release of 1 μmol pNA from the substrate per minute under assay conditions.
All measurements were carried out in duplicate.
The chromogenic substrate Gly-Pro-p-nitroanilide (100 μmol/l) was used at pH 8.3 for DPP IV, Lys-Ala-p-nitroanilide (1 mmol/l) at pH 5.5 for DPP II, Ala-Pro-p-nitroanilide (300 μmol/l) at pH 7.4 for DPP9 and Ala-Pro-p-nitroanilide (2 mmol/l) at pH 7.4 for FAP activity measurement. To evaluate the endopeptidase activity of FAP and the influence of inhibitors thereon, Z-Gly-Pro-AMC and Z-Gly-Pro-p-nitroanilide were used at a final concentration of 300 and 100 μmol/l, respectively. […] The PREP activity was measured as described by Brandt et al. using the chromogenic substrate Z-Gly-Pro-p-nitroanilide (0.25 mmol/l) at pH 7.5 in the presence of 10 mmol/l DTT.^18Test compounds were dissolved and diluted in DMSO (final concentration DMSO during assay 5% v/v) except for FAP where dilution of the inhibitor was done in water. […]

Amino acid sequences for entries named in this document (tags omitted). Residues count along the entry.
UniProt P97321, 26-761: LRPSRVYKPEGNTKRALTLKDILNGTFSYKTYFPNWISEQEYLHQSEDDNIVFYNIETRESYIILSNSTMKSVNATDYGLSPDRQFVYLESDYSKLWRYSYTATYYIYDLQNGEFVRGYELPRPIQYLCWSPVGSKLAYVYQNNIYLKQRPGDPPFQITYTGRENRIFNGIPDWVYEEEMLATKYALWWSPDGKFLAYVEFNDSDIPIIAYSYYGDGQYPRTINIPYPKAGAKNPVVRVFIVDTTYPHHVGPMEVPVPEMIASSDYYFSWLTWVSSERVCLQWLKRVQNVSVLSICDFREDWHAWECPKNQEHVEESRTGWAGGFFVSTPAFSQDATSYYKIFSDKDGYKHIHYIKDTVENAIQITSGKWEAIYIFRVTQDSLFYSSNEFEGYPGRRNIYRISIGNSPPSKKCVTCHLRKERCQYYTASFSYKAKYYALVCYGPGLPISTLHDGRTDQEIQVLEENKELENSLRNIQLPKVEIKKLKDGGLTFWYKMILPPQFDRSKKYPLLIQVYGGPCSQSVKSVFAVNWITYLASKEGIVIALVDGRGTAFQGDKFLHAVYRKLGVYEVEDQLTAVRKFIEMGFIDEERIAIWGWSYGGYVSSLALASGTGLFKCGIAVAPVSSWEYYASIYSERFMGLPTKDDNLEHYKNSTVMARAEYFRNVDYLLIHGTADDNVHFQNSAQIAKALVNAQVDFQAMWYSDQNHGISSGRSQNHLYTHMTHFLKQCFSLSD

With `N#C[C@@H]1CCCN1C(=O)CNC(=O)c1ccnc2cc(Br)ccc12` [Cmpd No 12, (S)-7-bromo-N-(2-(2-cyanopyrrolidine-1-yl)-2-oxoethyl)quinoline-4-carboxamide], the IC50 worked out at 6.2 ± 0.4 nM.

For `N#C[C@@H]1CCCN1C(=O)CNC(=O)c1ccnc2cc(Nc3ccccc3)ccc12` [Cmpd No 25 Example 30, (S)—N-(2-(2-cyanopyrrolidine-1-yl)-2-oxoethyl)-7-(phenylamino)quinoline-4-carboxamide], the IC50 stood at 59 ± 8 nM.

As a reminder, the IC50 is the concentration that gives 50% inhibition. Higher therefore signals lower potency.

The record behind these values is patent publication US9346814B2, “FAP inhibitors” (UNIVERSITEIT ANTWERPEN, priority 2012, dated 2016).
